Experimental data taken from patent US10512644B2, “Oligomer-opioid agonist conjugates” (Nektar Therapeutics, priority 2007, dated 2019).

Amino acid sequences for entries named in this document (tags omitted).
UniProt P41143, whole entry, looked up: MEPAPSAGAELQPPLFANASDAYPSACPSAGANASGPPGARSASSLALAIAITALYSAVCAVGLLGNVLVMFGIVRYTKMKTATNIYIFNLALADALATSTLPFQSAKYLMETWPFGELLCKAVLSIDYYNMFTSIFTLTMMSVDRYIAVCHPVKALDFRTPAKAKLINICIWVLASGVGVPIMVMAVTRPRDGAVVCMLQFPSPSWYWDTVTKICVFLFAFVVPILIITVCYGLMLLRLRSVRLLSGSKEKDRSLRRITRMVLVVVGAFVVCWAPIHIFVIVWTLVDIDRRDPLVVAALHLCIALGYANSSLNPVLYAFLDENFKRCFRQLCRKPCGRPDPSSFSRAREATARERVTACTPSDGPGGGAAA

What was measured:
mu opioid receptor [1] = molecular target: T1, mu opioid receptor (Homo sapiens (Human), UniProt P35372); format: biochemical; settings: read-out: Mu Antagonist IC50, GTP-γS Binding
mu opioid receptor [2] = molecular target: T1, mu opioid receptor; format: binding; settings: read-out: Ki at MU Receptors
[3] = molecular target: T2, recombinant human kappa opioid receptor (Homo sapiens (Human), UniProt P41145); format: biochemical; settings: read-out: Kappa Agonist EC50, GTP-γS Binding
[4] = molecular target: T3, recombinant human delta opioid receptor (Homo sapiens (Human), UniProt P41143); assay: GTPγS binding assay, delta opioid receptor, CHO cell membranes; format: biochemical; settings: antagonist mode vs 0.1 μM DPDPE; read-out: Delta IC50, GTP-γS Binding
[5] = molecular target: T2, recombinant human kappa opioid receptor; format: binding; settings: read-out: Ki at KAPPA receptors
[6] = molecular target: T3, recombinant human delta opioid receptor; assay: Radioligand competition binding in whole CHO cells, delta opioid receptor (3H DPDPE); settings: 0.5 nM 3H DPDPE, read-out: Ki at DELTA Receptors
[7] = Plasma pharmacokinetics after intravenous dosing in male Sprague-Dawley rats; settings: IV 1 mg/kg

Row | Substance | pIC50 (mu opioid receptor [1]) | pKi (mu opioid receptor [2]) | pEC50 [3] | pIC50 [4] | pKi [5] | pKi [6] | clearance, fold decrease vs parent [7] | mean volume of distribution (steady state), fold decrease vs parent [7]
1 | 6-O-mPEG9-nalbuphine | 6.00 | 6.91 | 6.31 | 5.05 | 6.73 | 6.80 |  | 
2 | α-6-mPEG6-O-codeine |  |  |  |  |  |  | 4 fold | 4 fold

pEC50, pIC50, pKi: −log10 of the molar value.
